Binding of CDR-mutated scFvs to a peptide of the spike HR2 region

Binding partner: SARS-CoV-2 spike HR2 peptide, sequence PDVDLGDISGINAS.

Each scFv is VH, the linker GGGGSGGGGSGGGGS, VL, as in the parent Ab-14, and differs from it in the CDRs of the light chain only.
VH: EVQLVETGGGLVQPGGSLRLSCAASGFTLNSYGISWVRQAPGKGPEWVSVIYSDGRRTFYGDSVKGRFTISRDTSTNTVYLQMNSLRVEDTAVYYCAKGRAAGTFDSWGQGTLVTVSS
VL: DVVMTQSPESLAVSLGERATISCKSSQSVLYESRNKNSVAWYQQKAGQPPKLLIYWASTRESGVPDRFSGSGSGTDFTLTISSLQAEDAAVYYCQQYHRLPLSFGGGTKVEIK

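The parent was found by panning a naive human phage display library on the peptide. Designed CDR sequences, proposed from the first random library and measured here. Group labels follow the data file (Ctrl: baseline library sampled from a position-specific scoring matrix, with some repeated check sequences; En: ensemble of fine-tuned language models; GP: Gaussian process model; HC: hill climbing; Gen: genetic algorithm; Gibbs: Gibbs sampling; a sequence that several methods proposed may carry one label only). The assay is AlphaSeq: two haploid yeast populations carry antibody and antigen on their surface. Binding brings cells together so that they mate, and sequencing counts the barcode pairs among the diploids. Read counts were normalised to the haploid input and turned into Kd by a linear fit to BCL2-family pairs of known affinity, for each replicate. Each pool was mated in six replicate cultures.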

Variants are written as CDR1, CDR2 and CDR3 of the light chain (limits as in the source). Parent: KSSQSVLYESRNKNSVA, WASTRES, QQYHRLPLS.
Values are apparent Kd, the geometric mean of the replicates that gave a signal; lower means stronger binding.
A pair that was not seen in any replicate is written "not detected"; this usually means weak binding, but a binder can also be missed.
In the paper, a design with two or fewer of six values counts as a poor binder.
A sequence measured in both rounds can read differently, since the two assays cover different ranges.
The parent sequence was in this pool as ten entries: three were never detected, three once, and four in most replicates, with averages from 2.2 nM to 240 nM.
Three control strains display no target. For all light chain designs, 4% of the pairings with them gave a signal, with a median of 430 nM and one signal in twenty below 38 nM, so weak values seen in few replicates may be background. For each scFv, signals with the empty controls are counted beside the result.

| apparent Kd | detected | empty controls | CDR-L1 | CDR-L2 | CDR-L3 | group |
|---|---|---|---|---|---|---|
| 29 nM | 5 of 6 | 0 of 18 | KSSQSVLYEHENKNSVA | WASTRES | QQYHRLPLS | Ctrl |
| 6.2 nM | 6 of 6 | 3 of 18 | QVAAIHEHESDQNQAMA | EASMRDA | QQYERLPLS | En_Gibbs |
| 680 pM | 6 of 6 | 0 of 18 | KVSQSHLYESRNSNSVA | NASTRES | QQYHRLPLS | GP_Gen |
| 1.3 nM | 6 of 6 | 3 of 18 | KLSQSWLYESRNKNSVA | NASQRCS | QQYHRLPLS | GP_Gen |
| 11 nM | 6 of 6 | 0 of 18 | KVSQSVLYERRNKNSVA | SASTRES | QQYHRLPLS | Ctrl |
| 500 pM | 6 of 6 | 0 of 18 | KGSISYLEESRNKNSVA | EASTRES | QQYHRLPLS | GP_HC |
| 390 pM | 6 of 6 | 0 of 18 | KLQMSMLYESRNKNSVA | NASLRES | QQYHRLPLS | GP_Gibbs |
| 16 nM | 6 of 6 | 3 of 18 | KLRQVTGYESYLKNSVA | QTSTRVS | QDYHRLPLS | En_HC |
| 6.0 nM | 6 of 6 | 2 of 18 | MISQILNMGQFAINSVA | QASLRNE | QQYDRLPLE | En_Gen |
| 39 nM | 6 of 6 | 0 of 18 | HILQNMTYESRNINSVA | HQSTRED | QQYHSLPLS | En_HC |
| 3.9 nM | 6 of 6 | 0 of 18 | KSSPSVGYEEFNKNAVA | GASTRES | QQYHRLPLS | Ctrl |
| not detected | 0 of 6 | 0 of 18 | KLSMLYRYETEEKNSIA | ELVTRMS | QQYHRLPLS | En_HC |
| 94 nM | 6 of 6 | 0 of 18 | KSSQSVLYEDRNKNSVA | WASTRER | QQYHRLPIS | Ctrl |
| not detected | 0 of 6 | 1 of 18 | MSSQSVLYESRNKHSVA | WAETRES | QQYHRQPLS | Ctrl |
| not detected | 0 of 6 | 0 of 18 | ILSDTVMQGSYYRNSVA | QESTRAD | QQYHHLPLS | En_HC |
| 1.9 nM | 6 of 6 | 0 of 18 | NIVGRVEDKGTTTANIA | DAELRAG | QQYSRLPLS | En_Gibbs |
| 2.6 nM | 6 of 6 | 0 of 18 | KQSQSVDYESRNKNSVA | EASTRES | QQYHRLPLS | GP_Gen |
| 1.3 nM | 6 of 6 | 1 of 18 | KLSQSMLYESRDKNSVA | GASTRES | QQYHRLPLS | Ctrl |
| 13 nM | 6 of 6 | 0 of 18 | KSSQSVLYESRNKNSVA | GASTRES | QQYHRLPLK | Ctrl |
| 1.6 nM | 6 of 6 | 2 of 18 | KLDPSDQGESRNKNAVA | QASTREI | QQYHRLPLS | GP_Gibbs |
| 1.2 nM | 6 of 6 | 0 of 18 | YVSQSQLYESRNKNSVA | NASTRES | QQYHRLPLS | GP_Gen |
| 6.7 nM | 6 of 6 | 1 of 18 | KSSQSVLYESRNKNSVA | DASIRRS | QQYHRLPLS | Ctrl |
| 1.8 nM | 6 of 6 | 0 of 18 | KSSQSVSMESRNKNSVA | DASTRES | QQYHRLPLS | GP_HC |
| 5.6 nM | 6 of 6 | 1 of 18 | KLSMVTNQEHKVKNSIA | EMVTREK | QQYDRLPLV | En_HC |
| 790 pM | 6 of 6 | 0 of 18 | TISQSWLIEQRNKNNVA | EMSTREN | QDYDRLPLS | En_HC |
| 300 nM | 5 of 6 | 0 of 18 | QLQFLDVQYGVKEQAIA | EENQRHQ | QHYFRLPLS | En_Gibbs |
| 650 pM | 6 of 6 | 3 of 18 | KISQGALYESRNKNSVA | GASTRES | QQYHRLPLS | GP_HC |
| 2.6 nM | 6 of 6 | 1 of 18 | KLSMSYRYESENKNSIA | ELVTRAS | QQYHRLPLS | En_HC |
| 9.0 nM | 6 of 6 | 0 of 18 | MMTTGLLGENKNSSNIA | SQNIKTA | QQYQRLPLT | En_Gibbs |
| 4.6 nM | 6 of 6 | 1 of 18 | KLSQSVTYESRNKNSVA | WATTRES | QQYHRLPLS | Ctrl |
| 1.8 nM | 6 of 6 | 2 of 18 | MMSQVTGQGQRHRNNVA | QTSEREA | QQYDRLPLI | En_Gen |
| 2.3 nM | 6 of 6 | 1 of 18 | KLMQSWDYESRNKNSVA | DASKRSQ | QQYHRLPLS | GP_Gibbs |
| 3.2 nM | 6 of 6 | 0 of 18 | KLSSFTGTEKVHGNNVA | EMETRER | QQYNRLPLA | En_Gen |
| 850 pM | 6 of 6 | 0 of 18 | DVSQSVLYEGRNKNSVA | QASERES | QQYHRLPLE | Ctrl |
| 59 nM | 6 of 6 | 1 of 18 | KSSLSGLYESRNKNSVA | WASTRES | QQYHQLPLS | Ctrl |
| 1.3 nM | 6 of 6 | 0 of 18 | KVSQSVLYESRMKNSVA | NASQRES | QQYHRLPLS | GP_Gen |
| 66 nM | 1 of 6 | 0 of 18 | KSSQSALYESRNKNSVA | WASTREG | QQYHELPLS | Ctrl |
| 2.0 nM | 6 of 6 | 1 of 18 | KSSISNLYESRMKNSVA | EASTRES | QQYHRLPLS | GP_HC |
| 2.7 nM | 6 of 6 | 0 of 18 | KLQQSWEYGSRNANSVA | NASQREE | QQYHRLPLS | GP_Gibbs |
| 1.5 nM | 6 of 6 | 0 of 18 | KIGMTLNQLYQKNNNVA | DLVEREN | QQYHRLPLS | En_Gen |
| 5.3 nM | 6 of 6 | 0 of 18 | KSLGSVLYESRDKNSVA | HASTRED | QQYHRLPLS | GP_HC |
| 2.1 nM | 6 of 6 | 2 of 18 | KLSQSWLYESRNPNSVA | NASTRES | QQYHRLPLS | GP_Gen |
| 63 nM | 6 of 6 | 1 of 18 | KIELDLTRYNAGGANIA | HETMKAQ | QQYSHLPLI | En_Gibbs |
| 570 pM | 6 of 6 | 0 of 18 | KLSQSVLYESRNWNSVA | NASTRES | QQYHRLPLS | GP_Gen |
| 3.5 nM | 6 of 6 | 0 of 18 | KIQHQHVGNWKTMNNIA | QGDQRCQ | QSYDRLPLS | En_Gibbs |
| 780 pM | 6 of 6 | 1 of 18 | KVSQSGLMESRNKNSVA | EASTRES | QQYHRLPLS | GP_HC |
| 6.5 nM | 4 of 6 | 0 of 18 | KLMHYKHGGDGTRNSVA | EMTIREY | QQYFHLPLN | En_Gibbs |
| 14 nM | 6 of 6 | 0 of 18 | MVYQAAMMGTSTRNSIA | NAQMRPD | QQYHRLPLM | En_Gen |
| 1.8 nM | 6 of 6 | 0 of 18 | KLMQSMLYESRNSNSVA | NASTREH | QQYHRLPLM | GP_Gibbs |
| 68 nM | 4 of 6 | 0 of 18 | HMRHEFYGYWNYDQAVA | HANQRLN | QQYSRLPFS | En_Gibbs |
| 6.0 nM | 6 of 6 | 1 of 18 | KSSISYLYESPNKNSVA | EASTRMS | QQYHRLPLS | GP_HC |
| 35 nM | 6 of 6 | 3 of 18 | QLLMATMQGAYNRNSVA | HAQTRND | QSYHRLPLS | En_HC |
| 480 pM | 6 of 6 | 3 of 18 | KVSQEKLYESRNKNSVA | DASTRES | QQYHRLPLS | GP_HC |
| 340 nM | 4 of 6 | 1 of 18 | KSSKSVLYEENNNNAVA | WASTREW | QQYHRYPIS | Ctrl |
| 1.5 nM | 6 of 6 | 0 of 18 | KLMQSTLYESRNANNVA | YASTREE | QQYHRLPLS | GP_Gibbs |
| 3.5 nM | 6 of 6 | 2 of 18 | KLSQSVEGEEWNKNSVA | HASVREV | QQYHRLPLS | GP_Gibbs |
| 3.4 nM | 6 of 6 | 0 of 18 | KASPSQEYESRNKQSVA | HASLRLE | QQYHRLPLS | GP_Gibbs |
| 1.7 nM | 6 of 6 | 0 of 18 | KVEQSVLYESRNKNAVA | NASTRES | QQYHRLPLS | GP_Gen |
| 340 nM | 3 of 6 | 2 of 18 | KLSQFYRMESRNKNSVA | DNSTRED | QDYDRLPLS | En_HC |
| not detected | 0 of 6 | 0 of 18 | KSSQSVLYESRNKNGVA | WVSTRES | QQYHRLPLS | Ctrl |
| 610 nM | 2 of 6 | 1 of 18 | KSSQSVLYESRNKNSVA | WASTRES | QQYHRIPLS | Ctrl |
| 2.0 nM | 6 of 6 | 1 of 18 | KLSAATYRESMHENNVA | DLRARVE | QQYHRLPLS | En_HC |
| 880 pM | 6 of 6 | 0 of 18 | KMQQSELYESRNKNSVA | NASQRMS | QQYHRLPLS | GP_Gen |
| 19 nM | 6 of 6 | 1 of 18 | KISMSYRYESQEKNSIA | EESTRAE | QSYHRLPLS | En_HC |
| 7.5 nM | 6 of 6 | 3 of 18 | NMGGTKEMQSNEIGNIA | DMNERFA | QQYFQLPLS | En_Gibbs |
| 59 nM | 2 of 6 | 0 of 18 | KIMQSLNYEQFNVSNVA | GQETREK | QSYHRLPLS | En_HC |
| not detected | 0 of 6 | 0 of 18 | KSSQSVLYESRKKNSVA | WASTRES | CQYHRLPLS | Ctrl |
| 18 nM | 6 of 6 | 1 of 18 | KSSQSVLYESRNKNSVA | GAKTRES | QQYHRLPLS | Ctrl |
| 6.7 µM | 1 of 6 | 0 of 18 | KSRQSVLYEDRNKNSVA | WASTRES | QQKHRLPLS | Ctrl |
| 1.5 nM | 6 of 6 | 2 of 18 | KSSISTLYESRNKNSVA | EASTRES | QQYHRLPLM | GP_HC |
| 1.3 nM | 6 of 6 | 2 of 18 | KVMQSVLYEDRNANNVA | NGSTRCS | QQYHRLPLS | GP_Gibbs |
| 4.5 nM | 6 of 6 | 3 of 18 | KLGQMTAIESNNLNSVA | QMDTRES | QQYHRLPLS | En_HC |
| 1.9 nM | 6 of 6 | 2 of 18 | KLQQSWLYESRNKNSVA | EASTRLS | QQYHRLPLS | GP_Gen |
| 25 nM | 6 of 6 | 1 of 18 | TLHANIQYGGIMWSSIA | GNVQRAN | QQYTRLPLS | En_Gibbs |
| 6.0 nM | 6 of 6 | 3 of 18 | KIRDQQYSQSEMEDNIA | QESTRHQ | QQYFRLPLS | En_Gibbs |
| 2.8 nM | 6 of 6 | 2 of 18 | TISQLYNMGQFAINSVA | QASERSN | QQYDRLPLM | En_Gen |

Excerpt, the first 11 entries:

| CDR-L1 | CDR-L2 | CDR-L3 | group | apparent Kd | detected | empty controls |
|---|---|---|---|---|---|---|
| KSSQSVLYEHENKNSVA | WASTRES | QQYHRLPLS | Ctrl | 29 nM | 5 of 6 | 0 of 18 |
| QVAAIHEHESDQNQAMA | EASMRDA | QQYERLPLS | En_Gibbs | 6.2 nM | 6 of 6 | 3 of 18 |
| KVSQSHLYESRNSNSVA | NASTRES | QQYHRLPLS | GP_Gen | 680 pM | 6 of 6 | 0 of 18 |
| KLSQSWLYESRNKNSVA | NASQRCS | QQYHRLPLS | GP_Gen | 1.3 nM | 6 of 6 | 3 of 18 |
| KVSQSVLYERRNKNSVA | SASTRES | QQYHRLPLS | Ctrl | 11 nM | 6 of 6 | 0 of 18 |
| KGSISYLEESRNKNSVA | EASTRES | QQYHRLPLS | GP_HC | 500 pM | 6 of 6 | 0 of 18 |
| KLQMSMLYESRNKNSVA | NASLRES | QQYHRLPLS | GP_Gibbs | 390 pM | 6 of 6 | 0 of 18 |
| KLRQVTGYESYLKNSVA | QTSTRVS | QDYHRLPLS | En_HC | 16 nM | 6 of 6 | 3 of 18 |
| MISQILNMGQFAINSVA | QASLRNE | QQYDRLPLE | En_Gen | 6.0 nM | 6 of 6 | 2 of 18 |
| HILQNMTYESRNINSVA | HQSTRED | QQYHSLPLS | En_HC | 39 nM | 6 of 6 | 0 of 18 |
| KSSPSVGYEEFNKNAVA | GASTRES | QQYHRLPLS | Ctrl | 3.9 nM | 6 of 6 | 0 of 18 |

Source: Li et al. 2023 (doi:10.1038/s41467-023-39022-2), MIT Lincoln Laboratory and A-Alpha Bio; data file from the FLAb repository.